Amino acid sequences for entries named in this document (tags omitted). A change or cut given only in a name is not applied to a line headed by its entry.
UniProt Q12809: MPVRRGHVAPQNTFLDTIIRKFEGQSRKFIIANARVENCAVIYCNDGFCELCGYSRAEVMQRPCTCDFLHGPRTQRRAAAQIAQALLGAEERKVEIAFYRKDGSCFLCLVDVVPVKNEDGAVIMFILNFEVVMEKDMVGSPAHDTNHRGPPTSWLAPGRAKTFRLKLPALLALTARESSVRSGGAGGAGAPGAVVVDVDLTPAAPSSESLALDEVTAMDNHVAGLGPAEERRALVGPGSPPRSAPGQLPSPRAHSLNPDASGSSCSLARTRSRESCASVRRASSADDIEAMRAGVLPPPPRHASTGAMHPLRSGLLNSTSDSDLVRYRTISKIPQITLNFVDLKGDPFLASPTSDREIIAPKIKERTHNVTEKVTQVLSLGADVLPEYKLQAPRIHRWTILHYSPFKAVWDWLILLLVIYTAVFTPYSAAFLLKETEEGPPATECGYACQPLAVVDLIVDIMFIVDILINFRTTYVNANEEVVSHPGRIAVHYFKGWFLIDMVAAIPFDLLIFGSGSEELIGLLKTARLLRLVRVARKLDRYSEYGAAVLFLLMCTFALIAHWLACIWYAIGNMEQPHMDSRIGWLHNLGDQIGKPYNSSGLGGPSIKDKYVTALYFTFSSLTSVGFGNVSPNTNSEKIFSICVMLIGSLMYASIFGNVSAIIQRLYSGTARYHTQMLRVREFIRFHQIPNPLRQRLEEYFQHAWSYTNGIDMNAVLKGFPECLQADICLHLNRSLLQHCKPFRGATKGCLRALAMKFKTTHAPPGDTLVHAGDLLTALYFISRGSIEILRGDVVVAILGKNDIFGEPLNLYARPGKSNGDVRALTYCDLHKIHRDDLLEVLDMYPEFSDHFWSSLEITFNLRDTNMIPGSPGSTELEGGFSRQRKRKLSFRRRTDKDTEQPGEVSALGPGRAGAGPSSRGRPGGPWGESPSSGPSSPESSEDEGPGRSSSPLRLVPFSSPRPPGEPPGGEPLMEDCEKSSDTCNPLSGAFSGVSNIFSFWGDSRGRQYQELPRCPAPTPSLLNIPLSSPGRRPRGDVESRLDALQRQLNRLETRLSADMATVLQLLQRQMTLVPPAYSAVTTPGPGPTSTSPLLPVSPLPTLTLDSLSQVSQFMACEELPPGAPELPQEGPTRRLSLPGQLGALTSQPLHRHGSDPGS

According to ChEMBL document CHEMBL4619807, “Exploration of Alternative Scaffolds for P2Y14 Receptor Antagonists Containing a Biaryl Core” (J Med Chem, 2020):

How the values were obtained:
[1] = Stability in simulated gastric fluid assessed as compound remaining level at 120 mins; assay type: physicochemical; settings: simulated gi fluid, 2 h
[2] = Stability in rat plasma assessed as compound remaining level at 120 mins; assay type: ADME, cell-free; settings: 2 h
[3] = Stability in simulated intestinal fluid assessed as compound remaining level at 120 mins; assay type: physicochemical; settings: simulated gi fluid, 2 h
[4] = molecular target: Voltage-gated inwardly rectifying potassium channel KCNH2 (Homo sapiens, UniProt Q12809); assay: Inhibition of human ERG

For `O=C(O)c1cc(-c2ccc(C34CCN(CC3)CC4)cc2)c2ccc(-c3ccc(C(F)(F)F)cc3)cc2c1`, the Stability [1] was 74.2%, the Stability [2] was 79.9% and the Stability [3] was 99.7%. It also gave an IC50 [4] of 16.4 µM.
